Reference: US9096629B2, “Process of forming iron hydroxypyrone compounds” (Iron Therapeutics Holdings AG, priority 2011, dated 2015)

Which solubility in ethanol does the source give for ferric hydroxide [Fe(OH)3] here?
The solubility in ethanol was “insoluble”.
